What was measured:
[1] = biological target: T1, 5-HT1A receptor (Homo sapiens, UniProt P08908); assay: cell-based; parameters: species or system CHO-K1; cAMP HTRF agonist assay, Gi coupled receptors, inhibition of stimulated cAMP; settings: cAMP
T1 construct: gene HTR1A; full-length human recombinant receptor in CHO-K1 cells (Ogeda); crude membranes
Procedure: Concentration–response curves were performed in parallel with the agonists. […] After addition of the lysis buffer and 1‐hr incubation, cAMP concentrations were estimated according to the manufacturer specification with the HTRF kit (Cisbio International, Codelet, France). In brief, increasing concentrations of agonists were added to stably transfected cells in buffer in an Optiplate (PerkinElmer Life Sciences, Massachusetts, USA). The plates were incubated, and cells were then lysed by the addition of HTRF reagents (cAMP‐Cryptate and anti‐cAMP‐d2 reagents) and diluted in lysis buffer, followed by incubation at room temperature. […] Additionally, the reference values obtained were compared to historical values obtained from the same receptor and used to validate the experimental session. […] For the new assays developed in this study (i.e., 5‐ht1E receptor), the two independent pIC50 determined must be concordant with a 1 log unit interval for the assays to be validated.

Protein sequences, listed by entry. Tags and fused reporters are not part of them.
UniProt P08908, whole entry: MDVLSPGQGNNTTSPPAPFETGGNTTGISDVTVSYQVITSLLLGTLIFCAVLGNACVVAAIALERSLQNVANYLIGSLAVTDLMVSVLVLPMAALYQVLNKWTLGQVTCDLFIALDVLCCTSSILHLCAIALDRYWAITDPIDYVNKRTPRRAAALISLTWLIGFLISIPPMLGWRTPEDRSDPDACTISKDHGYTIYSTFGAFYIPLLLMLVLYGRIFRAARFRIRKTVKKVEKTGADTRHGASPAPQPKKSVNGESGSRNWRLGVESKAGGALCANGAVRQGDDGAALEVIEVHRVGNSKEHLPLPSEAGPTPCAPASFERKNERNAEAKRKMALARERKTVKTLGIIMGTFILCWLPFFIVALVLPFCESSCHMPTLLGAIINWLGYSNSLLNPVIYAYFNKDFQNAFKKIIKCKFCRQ

[2] = biological target: T1, 5-HT1A receptor; assay: biochemical; assay type: CHO-K1 membranes; parameters: GTPγS agonist functional assay; settings: GTPγS
From the text: Additionally, the reference values obtained were compared to historical values obtained from the same receptor and used to validate the experimental session. […] For the new assays developed in this study (i.e., 5‐ht1E receptor), the two independent pIC50 determined must be concordant with a 1 log unit interval for the assays to be validated.

[3] = biological target: T1, 5-HT1A receptor; assay: biochemical; assay type: CHO-K1 membranes; parameters: radioligand competition binding on cell membranes, filtration and TopCount scintillation counting; settings: radioligand displacement; read-out: 5‐HT1A / pIC50 (converted)
Procedure: Competition binding was performed in duplicate in the wells of a 96‐well plate containing binding buffer (optimized for each receptor), cell membrane extracts (approximately 20,000 cells distributed in the 96‐well plate), radiotracer, and test agonist. Non‐specific binding was determined by co‐incubation with 200‐fold excess of competitor. Cells were incubated and exposed to varying concentrations (1 pM to 10 μM) of a range of displacer agonists (see below). The samples were incubated in a final volume of 0.1 ml and then filtered over Unifilter plates (Perkin Elmer, Massachusetts, USA) pretreated for 2 hr to limit tracer non‐specific binding. Filters were washed five times with 0.5 ml of ice‐cold washing buffer (tris 50 mM pH 7.4) and 50 μl of Microscint 20 (Perkin Elmer) were added to each filter. The plates were incubated 15 min at room temperature on an orbital shaker and then counted with a TopCount™ (Perkin Elmer) for 1 min per well. […] Additionally, the reference values obtained were compared to historical values obtained from the same receptor and used to validate the experimental session. […] For the new assays developed in this study (i.e., 5‐ht1E receptor), the two independent pIC50 determined must be concordant with a 1 log unit interval for the assays to be validated.

[4] = biological target: T1, 5-HT1A receptor; assay: radioligand competition, CHO-K1 membranes; assay type: binding; settings: read-out: 5-HT1A / pKi (converted)
From the text: radioligand competition, CHO-K1 membranes on 5-HT1A receptor

CNS(=O)(=O)Cc1ccc2[nH]cc(CCN(C)C)c2c1 [Sumatriptan succinate]
EC50 [1]: > 10000 nM
EC50 [2]: > 10000 nM
IC50 [3]: 234 nM
Ki [4]: 72.4 nM

Source: article PMC6965684, “Characterization of binding, functional activity, and contractile responses of the selective 5‐HT1F receptor agonist lasmiditan” (British Journal of Pharmacology, 2019)
